According to ChEMBL document CHEMBL2321691 (J Med Chem, 2013):

Species on record: Bos taurus

Ka | Structure (SMILES)
2.16 ×10⁶ /M | COc1cc(C(=O)c2ccc3c(ccn3C)c2)cc(OC)c1OC
< 1 ×10⁴ /M | COc1cc(C(=O)c2ccc3c(c2)c(C(=O)O)cn3C)cc(OC)c1OC
1.8 ×10⁷ /M | C=C(c1cc(OC)c(OC)c(OC)c1)c1ccc2c(c1)c(C#N)cn2C
3.1 ×10⁵ /M | COc1ccc(C(C)c2ccc3c(ccn3C)c2)c(OC)c1OC (centres undefined)
5.3 ×10⁴ /M | COc1ccc(C(=CC=O)c2ccc3c(c2)c(C=O)cn3C)c(OC)c1OC
< 1 ×10⁴ /M | C=C(c1cc(OC)c(OC)c(OC)c1)c1ccc2c(c1)c(CO)cn2C
1 ×10⁶ /M | C=C(c1ccc2c(c1)c(CO)cn2C)c1ccc(OC)c(OC)c1OC
8.6 ×10⁶ /M | C=C(c1cc(OC)c(OC)c(OC)c1)c1ccc2c(c1)c(C=NO)cn2C
2.6 ×10⁵ /M | COc1ccc(C(=O)c2ccc3c(c2)c(C=O)cn3C)c(OC)c1OC
5.4 ×10⁵ /M | C=C(c1ccc2c(c1)c(C=NO)cn2C)c1ccc(OC)c(OC)c1OC
7.6 ×10⁶ /M | C=C(c1ccc2c(ccn2C)c1)c1ccc(OC)c(OC)c1OC
< 1 ×10⁴ /M | COc1ccc(C(C)c2ccc3c(c2)c(C=NN)cn3C)c(OC)c1OC (centres undefined)
4 ×10⁶ /M | C=C(c1ccc2c(c1)c(C#N)cn2C)c1ccc(OC)c(OC)c1OC
3.1 ×10⁵ /M | COc1cc(C(=O)c2ccc3c(c2)c(C=O)cn3C)cc(OC)c1OC
5.4 ×10⁴ /M | C=C(c1cc(OC)c(OC)c(OC)c1)c1ccc2c(c1)c(C=NN)cn2C
3.6 ×10⁵ /M | C=C(c1cc(OC)c(OC)c(OC)c1)c1ccc2c(c1)c(C=O)cn2C
2.4 ×10⁵ /M | COc1cc(C(=CC=O)c2ccc3c(c2)c(C=O)cn3C)cc(OC)c1OC
< 1 ×10⁴ /M | C=C(c1ccc2c(c1)c(C=O)cn2C)c1ccc(OC)c(OC)c1OC

Structure (SMILES) | Ka
C=C(c1cc(OC)c(OC)c(OC)c1)c1ccc2c(ccn2C)c1 | 3.8 ×10⁶ /M
